Legend:
[1] = molecular target: T1, Tyrosine-protein kinase BTK (Homo sapiens, UniProt Q06187); assay: Inhibition of BTK (unknown origin)
[2] = molecular target: T1, Tyrosine-protein kinase BTK; assay: Inhibition of BTK in human Ramos cells assessed as reduction in PLCgamma2 phosphorylation at Tyr759 residue by chemiluminescence based assay; format: cell-based

Sequences of proteins named here, by UniProt entry; tags and fusion partners are left off. A change or cut given only in a name is not applied to a line headed by its entry.
UniProt Q06187: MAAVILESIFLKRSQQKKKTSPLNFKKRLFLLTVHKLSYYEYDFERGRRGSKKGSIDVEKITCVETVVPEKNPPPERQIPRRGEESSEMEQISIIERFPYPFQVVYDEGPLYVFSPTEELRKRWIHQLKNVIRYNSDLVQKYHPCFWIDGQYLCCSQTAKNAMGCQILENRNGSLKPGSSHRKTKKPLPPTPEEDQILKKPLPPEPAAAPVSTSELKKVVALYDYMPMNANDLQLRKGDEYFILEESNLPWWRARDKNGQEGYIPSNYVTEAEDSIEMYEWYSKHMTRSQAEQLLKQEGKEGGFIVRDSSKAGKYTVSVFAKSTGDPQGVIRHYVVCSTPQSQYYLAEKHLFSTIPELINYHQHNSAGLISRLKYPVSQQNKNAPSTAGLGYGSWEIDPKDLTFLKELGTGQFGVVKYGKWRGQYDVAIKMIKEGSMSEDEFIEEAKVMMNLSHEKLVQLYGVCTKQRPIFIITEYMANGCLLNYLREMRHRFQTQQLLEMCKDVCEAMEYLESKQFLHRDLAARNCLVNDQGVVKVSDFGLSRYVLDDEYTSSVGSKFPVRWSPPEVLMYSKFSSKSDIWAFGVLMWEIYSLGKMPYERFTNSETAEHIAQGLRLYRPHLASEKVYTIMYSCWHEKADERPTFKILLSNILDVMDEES

Row | IC50 [1] [nM] | EC50 [2] [nM] | Structure (SMILES)
1 | 0.58 | – | C=CS(=O)(=O)N1CCCC(n2nc(-c3ccc(Oc4ccccc4)cc3)c3c(N)ncnc32)C1 (configuration not stated)
2 | – | 318 | C=CC(=O)N1CCc2ccc(-n3c(=O)ccc4cnc5ccc(-c6cnn(C)c6)cc5c43)cc21

From ChEMBL document CHEMBL4270507, “Covalent binding design strategy: A prospective method for discovery of potent targeted anticancer agents” (Eur J Med Chem, 2017)
